Data published in patent publication US12364690B2, “Therapeutic agent for bile duct cancer” (NATIONAL CANCER CENTER, priority 2015, dated 2025).
Like-named read-outs stand apart in the source and are kept apart here.

The chains behind the UniProt entries cited, without tags or fusion partners. A line that says so, or that is headed by a name, gives the form on record, which may keep a tag or linker.
NIH3T3 cells transfected with FGFR2-TXLNA (Homo sapiens, UniProt P21802, DEL126-151/R152G), UniProt P21802, with tags, fused parts or gaps isoform P21802-22 DEL37-62/R63G: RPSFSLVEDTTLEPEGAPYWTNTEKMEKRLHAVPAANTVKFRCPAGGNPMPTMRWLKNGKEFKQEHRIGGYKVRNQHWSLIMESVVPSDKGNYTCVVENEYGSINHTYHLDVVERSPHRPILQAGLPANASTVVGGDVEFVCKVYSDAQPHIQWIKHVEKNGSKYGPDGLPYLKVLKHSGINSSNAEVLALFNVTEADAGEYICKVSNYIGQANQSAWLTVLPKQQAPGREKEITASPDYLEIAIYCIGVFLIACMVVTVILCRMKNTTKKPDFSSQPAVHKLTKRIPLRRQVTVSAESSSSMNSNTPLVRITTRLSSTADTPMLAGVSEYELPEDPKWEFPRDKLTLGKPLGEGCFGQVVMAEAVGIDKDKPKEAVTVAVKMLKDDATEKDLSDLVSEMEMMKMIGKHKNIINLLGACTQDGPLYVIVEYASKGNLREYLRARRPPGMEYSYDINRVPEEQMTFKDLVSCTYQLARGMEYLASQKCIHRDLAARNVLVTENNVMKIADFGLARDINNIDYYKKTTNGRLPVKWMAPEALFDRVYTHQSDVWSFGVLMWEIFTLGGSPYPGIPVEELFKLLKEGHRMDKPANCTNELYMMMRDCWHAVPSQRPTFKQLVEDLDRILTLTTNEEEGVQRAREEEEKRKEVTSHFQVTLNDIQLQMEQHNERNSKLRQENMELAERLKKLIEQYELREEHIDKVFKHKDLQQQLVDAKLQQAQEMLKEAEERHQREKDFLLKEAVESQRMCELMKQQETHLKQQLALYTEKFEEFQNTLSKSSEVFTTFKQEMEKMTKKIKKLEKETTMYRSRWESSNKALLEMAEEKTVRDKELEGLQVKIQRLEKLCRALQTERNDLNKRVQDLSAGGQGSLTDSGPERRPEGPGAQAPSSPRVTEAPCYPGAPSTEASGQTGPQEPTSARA
UniProt P21802, with tags, fused parts or gaps isoform P21802-22: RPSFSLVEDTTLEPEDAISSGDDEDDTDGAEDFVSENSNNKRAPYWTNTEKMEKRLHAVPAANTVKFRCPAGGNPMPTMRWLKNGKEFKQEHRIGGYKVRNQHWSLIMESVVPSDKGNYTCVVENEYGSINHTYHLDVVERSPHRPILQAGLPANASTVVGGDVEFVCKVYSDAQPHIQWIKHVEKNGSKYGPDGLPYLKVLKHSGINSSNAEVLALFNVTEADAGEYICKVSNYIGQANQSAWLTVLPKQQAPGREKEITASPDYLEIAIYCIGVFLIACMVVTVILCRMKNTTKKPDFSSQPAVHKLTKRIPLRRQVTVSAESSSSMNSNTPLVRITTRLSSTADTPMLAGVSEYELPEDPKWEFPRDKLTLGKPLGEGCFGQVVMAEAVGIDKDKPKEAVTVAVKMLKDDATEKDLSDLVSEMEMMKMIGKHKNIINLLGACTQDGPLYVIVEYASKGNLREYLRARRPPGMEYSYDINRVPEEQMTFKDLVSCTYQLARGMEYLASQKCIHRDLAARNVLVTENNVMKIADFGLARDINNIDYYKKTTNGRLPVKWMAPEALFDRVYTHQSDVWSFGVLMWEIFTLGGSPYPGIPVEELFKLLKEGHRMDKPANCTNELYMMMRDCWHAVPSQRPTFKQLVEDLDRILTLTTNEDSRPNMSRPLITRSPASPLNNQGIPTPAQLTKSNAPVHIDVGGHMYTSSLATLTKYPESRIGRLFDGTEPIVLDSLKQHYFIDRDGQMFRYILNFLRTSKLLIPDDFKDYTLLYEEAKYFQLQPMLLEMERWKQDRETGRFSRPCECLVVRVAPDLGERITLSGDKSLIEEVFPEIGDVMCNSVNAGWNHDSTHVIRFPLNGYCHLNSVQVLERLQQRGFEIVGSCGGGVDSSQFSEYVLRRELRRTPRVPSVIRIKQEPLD
NIH3T3 cell transfected with FGFR2-BICC1 type2 (Homo sapiens, UniProt P21802, DEL126-151/R152G), UniProt P21802, with tags, fused parts or gaps isoform P21802-22 DEL37-62/R63G: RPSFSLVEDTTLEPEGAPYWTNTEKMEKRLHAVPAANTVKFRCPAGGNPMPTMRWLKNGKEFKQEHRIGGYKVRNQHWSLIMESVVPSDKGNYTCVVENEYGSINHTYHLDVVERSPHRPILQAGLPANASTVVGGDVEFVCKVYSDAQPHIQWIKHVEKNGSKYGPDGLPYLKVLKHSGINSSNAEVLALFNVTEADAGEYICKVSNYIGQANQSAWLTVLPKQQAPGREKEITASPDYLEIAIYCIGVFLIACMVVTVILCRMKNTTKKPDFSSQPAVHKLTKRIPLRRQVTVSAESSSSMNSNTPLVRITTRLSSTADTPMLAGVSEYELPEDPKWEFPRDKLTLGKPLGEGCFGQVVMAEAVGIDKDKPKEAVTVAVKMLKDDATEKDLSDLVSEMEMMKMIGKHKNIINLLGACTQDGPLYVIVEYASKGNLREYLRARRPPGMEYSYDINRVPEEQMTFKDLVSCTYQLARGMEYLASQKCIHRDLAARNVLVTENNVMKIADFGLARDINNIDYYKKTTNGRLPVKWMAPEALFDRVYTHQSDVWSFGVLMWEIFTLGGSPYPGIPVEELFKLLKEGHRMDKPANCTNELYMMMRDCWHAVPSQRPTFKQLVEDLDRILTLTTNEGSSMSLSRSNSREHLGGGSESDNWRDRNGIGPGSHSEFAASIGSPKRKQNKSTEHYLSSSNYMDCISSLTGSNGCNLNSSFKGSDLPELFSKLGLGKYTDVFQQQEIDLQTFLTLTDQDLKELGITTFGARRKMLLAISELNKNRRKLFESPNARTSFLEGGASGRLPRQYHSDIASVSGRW

Experiments:
[1] = biological target: NIH3T3 cells transfected with FGFR2-TXLNA (Homo sapiens, UniProt P21802, DEL126-151/R152G); settings: final concentration 0.2 μM; soft agar; FIG. 5 and FIG. 6
Experimental: (§1) Using the following apparatus, the activity of FGFR inhibitors on the transformation capacity of FGFR2 fusion polypeptide was evaluated.

[2] = biological target: NIH3T3 cells transfected with FGFR2-KCTD1 (Homo sapiens, UniProt P21802); settings: final concentration 0.2 μM; soft agar; FIG. 5 and FIG. 6
Experimental: as §1

[3] = biological target: NIH3T3 cell transfected with FGFR2-BICC1 type2 (Homo sapiens, UniProt P21802, DEL126-151/R152G)
Experimental: as §1

## CCN(CC)CCCCNc1ncc2cc(-c3cc(OC)cc(OC)c3)c(NC(=O)NC(C)(C)C)nc2n1 [PD173074]
[1]
  anchorage independent growth: significantly suppressed
[2]
  anchorage independent growth: significantly suppressed
[3]; final concentration 0.2 μM, soft agar, FIG. 5 and FIG. 6
  anchorage independent growth: little suppressed
[3]; final concentration 1.0 μM, FIG. 7
  anchorage independent growth: suppressed
